The entries are a selection whose mix differs from that of the whole data set. The source made the active and inactive calls.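 How the source made its calls: active means compounds that cut the enzyme signal by at least half of the control window in the single-dose screen; inactive means the rest.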

Amino acid sequences for entries named in this document (tags omitted). A change or cut given only in a name is not applied to a line headed by its entry.
UniProt P24666: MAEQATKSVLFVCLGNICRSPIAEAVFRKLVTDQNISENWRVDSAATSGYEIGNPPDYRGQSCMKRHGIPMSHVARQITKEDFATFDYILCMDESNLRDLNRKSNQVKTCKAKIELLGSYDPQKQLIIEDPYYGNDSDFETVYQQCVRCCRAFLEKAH

Among the data in PubChem BioAssay AID651560 (Sanford-Burnham Center for Chemical Genomics, 2012) are inhibition values, retold here.

The target in this assay is Low molecular weight phosphotyrosine protein phosphatase (Homo sapiens) (UniProt P24666). As to the kind of experiment: inhibition of human LMPTP-A enzyme – biochemical, fluorescence intensity, uHTS, primary screen (AID 651560).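 Further: plate controls were DMSO wells with enzyme plus substrate for no effect and substrate without enzyme for full effect.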 Conditions: recombinant LMPTP-A, OMFP fluorogenic substrate, at 20 µM, active compounds read high. In short, it runs like this: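 Test system: LMPTP-A, protein tyrosine phosphatase of low molecular weight; Input: 0.625 nM enzyme; Incubation: 50 min dark incubation at room temperature; Signal: endpoint fluorescence intensity from OMFP dephosphorylation; Read-out basis: % inhibition versus control wells.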
On to `O=C(OC1CN2CCC1CC2)c1ccccc1` (stereo not given), for which the inhibition – broadly, the drop in the measured response relative to a control, in per cent – is inactive: 1.28%.
As to `CCC(=O)N1C2C3N(C(=O)CC)C1C1N(C(=O)CC)C(C(N1C(=O)CC)N3C(=O)CC)N2C(=O)CC`, the inhibition is inactive: 0.719%.
Take `COC(=O)c1cc2c(s1)N=C(c1ccccc1)N(C)P2(=O)N1CCOCC1` (stereo not given): the inhibition is inactive: -1.39%.
With `CC(=O)NC(SC(=S)N(CC(C)C)CC(C)C)C(Cl)(Cl)Cl` (stereo not given), the inhibition is inactive: -1.21%.
With `Cc1ccc(OP(=O)(Nc2ccccn2)Oc2ccc(C)cc2)cc1`, the inhibition was inactive: -1.12%.
On to `CC(NC(=O)COC(=O)C(O)(c1ccccc1)c1ccccc1)c1ccccc1` (stereo not given), for which the inhibition was inactive: 0.75%.
`Cc1ccccc1OP(=O)(Nc1ccccn1)Oc1ccccc1C`: the inhibition is inactive: 1.38%.
`O=c1c2cc([N+](=O)[O-])ccc2[nH]c2c([N+](=O)[O-])cc([N+](=O)[O-])cc12`: the inhibition was inactive: 1.11%.
With `CN(C)C(=O)Oc1noc2ccccc12`, the inhibition is inactive: 0.365%.
Take `c1ccc(-c2nn[nH]n2)c(-c2nn[nH]n2)c1`: the inhibition is inactive: -2.34%.
As for `Cc1ccc(NP(=O)(Oc2cccc(C)c2)Oc2cccc(C)c2)nc1`, the inhibition is inactive: -1.72%.
Then `O=C(NC1CCS(=O)(=O)C1)NP(=S)(Oc1ccccc1)Oc1ccccc1` (stereo not given), with inactive: 0.771%.
Then `CCNC(=S)/N=C(\N)N[N+](=O)[O-]`, with inactive: 2.27%; and `O=P1(N(CCCl)CCCl)OCCC2CCCCN21` (stereo not given), with inactive: -12%.
Then `Cc1ccccc1CN(C)C(=O)COC(=O)C(O)(c1ccccc1)c1ccccc1`, with inactive: -0.09%; and `C[C@H]1OP(=O)(Oc2ccccc2)C[C@@H]2O[C@@H]21` (stereo not given in full), with inactive: 0.563%; and `C[C@@H]1C=CCP(=O)(Oc2ccccc2)O1` (stereo not given in full), with inactive: -1.28%.
As for `CC(=O)c1ccc(N2CC2c2ccncc2)cc1` (stereo not given), the inhibition was inactive: -1.35%.
Consider `N#C/C(=C\c1ccc(N(CCBr)CCBr)cc1)C(N)=O`, for which the inhibition is inactive: -0.335%.
Turning to `COC(=O)C1(C)COP(=O)(NCc2ccccc2)OC1` (stereo not given), the inhibition is inactive: -0.876%.
Consider `CC(=O)Nc1ccc([As](=O)(O)O)c(O)c1`, for which the inhibition is inactive: -0.221%.
Take `CC(=O)Nc1ccc(Oc2c([N+](=O)[O-])cc([N+](=O)[O-])cc2[N+](=O)[O-])cc1`: the inhibition was inactive: -1.02%.
Turning to `O=P1(Nc2nc3ccc(Cl)cc3s2)COc2ccccc2O1` (stereo not given), the inhibition was inactive: -1.52%.
On to `CCOc1ccc(C2=NCC(CBr)S2)cc1` (stereo not given), for which the inhibition is inactive: 0.0213%.
In the case of `CC(C)(C)C(=O)NC(Sc1ccccc1)C(Cl)(Cl)Cl` (stereo not given), the inhibition was inactive: -0.412%.
To `CCc1cc(O)c([N+](=O)[O-])c(C)c1[N+](=O)[O-]` belongs inactive: -8.41%.
Turning to `O=P(Nc1nccs1)(c1ccccc1)c1ccccc1`, the inhibition was inactive: 0.495%.
Consider `CC(C)C(=O)NC(Sc1ccccc1)C(Cl)(Cl)Cl` (stereo not given), for which the inhibition was inactive: 1.01%.
Consider `c1nnnn1CCn1cnnn1`, for which the inhibition was inactive: -6.94%.
Then `O=[As](O)(c1ccccc1)c1ccc(O)cc1`, with inactive: -0.631%; and `CC(=O)NC(SC(=S)N(C)C)C(Cl)(Cl)Cl` (stereo not given), with inactive: -0.779%; and `O=[N+]([O-])c1ncn(CCn2cnc([N+](=O)[O-])n2)n1`, with inactive: -1.26%.
`O=[N+]([O-])c1ccc(O)c(/C=N/Nc2ccc([N+](=O)[O-])cc2[N+](=O)[O-])c1`: the inhibition was inactive: 0.619%.
On to `O=C(OC1CN2CCC1CC2)c1cccc(Cl)c1` (stereo not given), for which the inhibition is inactive: -2.67%.
Take `C(Cc1nn[nH]n1)Cc1nn[nH]n1`: the inhibition was inactive: -1.05%.
To `Nc1ccc([As](=O)(O)c2ccc([N+](=O)[O-])cc2)cc1` belongs inactive: -1.17%; to `CN(C)C1(CNC(=O)c2ccc(Cl)c(S(N)(=O)=O)c2)CCCCC1`, inactive: -0.981%.
Regarding `O=P(Nc1ccccn1)(c1ccc(Br)cc1)c1ccc(Br)cc1`, the inhibition was inactive: 1.41%.
As to `COc1ccc(N)c([N+](=O)[O-])c1[N+](=O)[O-]`, the inhibition is inactive: 2.15%.
Then `Nc1ccc(CCCCOc2ccccc2)cc1`, with inactive: -0.105%.
On to `O=P(Nc1nc2ccccc2s1)(c1ccccc1)c1ccccc1`, for which the inhibition was inactive: -0.612%.
`C[C@H]1OP(=O)(Oc2ccccc2)[C@H](O)[C@H](O)[C@H]1N=[N+]=[N-]` (stereo not given in full): the inhibition is inactive: 0.123%.
Take `O=[N+]([O-])c1ncn(CCn2ncnc2[N+](=O)[O-])n1`: the inhibition is inactive: -1.81%.
Consider `CC(C)(C)C(=O)NC(Sc1ccncn1)C(Cl)(Cl)Cl` (stereo not given), for which the inhibition is inactive: 0.0345%.
To `O=C(O)CNc1ccc([As](=O)(O)O)cc1` belongs inactive: 1.44%; to `COC(=O)C1(C)COP(=O)(Nc2ccccc2)OC1` (stereo not given), inactive: -1.58%.
As to `O=[N+]([O-])c1cccc(NC2=NCC(CBr)S2)c1` (stereo not given), the inhibition is inactive: 1.77%.
To `O=P1(N(CCCl)CCCl)OCCCS1` (stereo not given) belongs inactive: -3.2%; to `O=C(Nc1cc([As](=O)(O)O)ccc1O)c1ccccc1`, inactive: -1.58%.
To `CCN(/C(=N/P(=O)(N1CCOCC1)N1CCOCC1)N1CCOCC1)c1ccc(OC)cc1` belongs inactive: -1.05%.
Regarding `Nc1ccc([As](=O)(O)c2ccc(N)cc2)cc1`, the inhibition was inactive: 3.6%.
For the molecule `C[N+]1=C2C=CC=CC=C2SC12C([N+](=O)[O-])=CC([N+](=O)[O-])=C[C-]2[N+](=O)[O-]` (stereo not given), the inhibition is active: 70.8%.
In the case of `CC1CCN(C(=O)Oc2c(Cl)cc(Cl)c3cccnc23)CC1`, the inhibition is inactive: 1.14%.
For the molecule `c1cc(-c2nn[nH]n2)ccc1-c1nn[nH]n1`, the inhibition is inactive: -0.938%.
`CC(C)c1nc(Nc2ccccc2)n(P(=O)(N(C)C)N(C)C)n1`: the inhibition was inactive: -1.35%.
As to `CC(C)=N/N=C(\N)N[N+](=O)[O-]`, the inhibition is inactive: 4.62%.
With `CN(C)C(=O)OCCc1n(C)cc[n+]1C`, the inhibition is inactive: -9.5%.
With `COc1ccc(C2=NCC(CBr)S2)cc1` (stereo not given), the inhibition is inactive: -2.74%.
For the molecule `Cc1ccc(NP(=O)(Oc2ccccc2)Oc2ccccc2)nc1`, the inhibition is inactive: -1.35%.
Turning to `O=[N+]([O-])c1cc([N+](=O)[O-])c(CCNc2ccccc2)c([N+](=O)[O-])c1`, the inhibition was inactive: 3.87%.
With `CCc1nc2c(n1)c1c(non1O)c1c2no[n+]1[O-]`, the inhibition is inactive: -0.815%.
As to `CC(=O)N1C2C3N(C(C)=O)C1C1N(C(C)=O)C(C(N1C(C)=O)N3C(C)=O)N2C(C)=O`, the inhibition is inactive: -3.16%.
For `O=[N+]([O-])c1cccc2n[nH]nc12`, the inhibition was inactive: -1.77%.
For the molecule `Oc1ccccc1CNc1ccccn1`, the inhibition was inactive: 3.89%.
As for `O=C(NC(Sc1ccncn1)C(Cl)(Cl)Cl)c1ccccc1` (stereo not given), the inhibition is inactive: -1.89%.
`Nc1cc(N)c2nonc2c1[N+](=O)[O-]`: the inhibition is inactive: 3.91%.
For the molecule `CC(C)CC(=O)NC(Sc1ccc(Cl)cc1)C(Cl)(Cl)Cl` (stereo not given), the inhibition is inactive: 0.595%.
Then `O=[N+]([O-])C1C(O)C(O)C([N+](=O)[O-])C(O)C1O` (stereo not given), with inactive: 0.313%; and `CN(C(=O)Cc1ccc(Cl)c(Cl)c1)[C@H]1CCCC[C@H]1N1CCCC1`, with inactive: 0.84%.
Then `Cc1ccc(N/C(=N/P(=O)(N2CCOCC2)N2CCOCC2)N2CCOCC2)cc1`, with inactive: 0.675%.
Then `NC(=O)c1cc([N+](=O)[O-])cc([N+](=O)[O-])c1N`, with inactive: 1.02%; and `CN1CCCC(OC(=O)C(c2ccccc2)c2ccccc2)C1` (stereo not given), with inactive: -2.34%.
Regarding `Clc1ccc(Cl)c(NC2=NCC(CBr)S2)c1` (stereo not given), the inhibition was inactive: 0.816%.
Then `COc1ccccc1OP(=O)(Nc1ccc(C)cn1)Oc1ccccc1OC`, with inactive: -0.543%; and `Cc1ccc(OP(=O)(Nc2nccs2)Oc2ccc(C)cc2)cc1`, with inactive: 0.851%.
Regarding `Nc1cccc2ccc([As](=O)(O)O)cc12`, the inhibition is inactive: 1.95%.
In the case of `CCN(N=Nc1nonc1N)c1nonc1N`, the inhibition is inactive: -2.76%.
For `O=P(Nc1nc2ccc(Cl)cc2s1)(c1ccccc1)c1ccccc1`, the inhibition is inactive: 3.07%.
As to `CN(C)P(=O)(N(C)C)n1c(Nc2ccccc2)nnc1-c1ccccc1`, the inhibition is inactive: 1.45%.
To `CC(=O)Nc1ccc([As](=O)(O)O)cc1` belongs inactive: 0.0211%.
Take `O=C(O)c1ccccc1[As](=O)(O)O`: the inhibition is inactive: -1.97%.
For `CCCC1OP(N)(=O)OCC1CC` (stereo not given), the inhibition is inactive: -1.31%.
With `Cc1cc(SC(NC(=O)c2ccc(F)cc2)C(Cl)(Cl)Cl)ncn1` (stereo not given), the inhibition was inactive: 0.0869%.
`CCOP(=O)(Nc1ccccc1)OCC`: the inhibition is inactive: -0.537%.
Turning to `CN(C(=O)Cc1ccc(Cl)c(Cl)c1)[C@H]1CCCC[C@@H]1N1CCCC1`, the inhibition was inactive: -0.213%.
For the molecule `Cc1ccc(NP(=O)(Oc2ccccc2F)Oc2ccccc2F)nc1`, the inhibition was inactive: -0.636%.
Turning to `ClCCSc1nnc(-c2cccnc2)o1`, the inhibition was inactive: -1.44%.
Then `COC(=O)C1(C)COP(=O)(N2CCCCCC2)OC1` (stereo not given), with inactive: -1.38%; and `CC(C)c1ccc(OP(=O)(Nc2ccccn2)Oc2ccccc2F)cc1` (stereo not given), with inactive: -0.502%.
Take `CC(C)NC(=O)NP(=O)(Oc1ccccc1)Oc1ccccc1`: the inhibition is inactive: 4.83%.
On to `CCN(CC)C(=S)SC(NC=O)C(Cl)(Cl)Cl` (stereo not given), for which the inhibition was inactive: 0.269%.
To `O=C(OC1CN2CCC1CC2)c1cccc2[nH]cnc12` (stereo not given) belongs inactive: -2.99%.
For `O=[N+]([O-])c1cc([N+](=O)[O-])c(-c2ccn[nH]2)s1`, the inhibition is inactive: 0.477%.
`C[As](=O)(O)c1cccc(C(=O)O)c1`: the inhibition is inactive: -3.43%.
Take `O=[As](O)(c1ccc(O)cc1)c1ccccc1O`: the inhibition was inactive: -0.251%.
For the molecule `O=[N+]([O-])c1ccc(-c2cc([N+](=O)[O-])c(O)c([N+](=O)[O-])c2)cc1`, the inhibition is inactive: 1.77%.
Consider `COc1cc(C(=O)NCC2(N3CCOCC3)CCCCC2)ccc1OCC(C)C`, for which the inhibition was inactive: -0.592%.
Then `Cc1ccc(OP(=O)(Nc2ccc([N+](=O)[O-])cn2)Oc2ccc(C)cc2)cc1`, with inactive: 1.5%.
Consider `[N-]=[N+]=NC1CCCCC1NC(=O)c1cc([N+](=O)[O-])cc([N+](=O)[O-])c1` (stereo not given), for which the inhibition is inactive: -1.68%.
Take `Cc1ccc2nc3c(c(C)c2c1)CC(C(Cl)Cl)S3` (stereo not given): the inhibition was inactive: 2.69%.
